For the experiment, the target named is Receptor tyrosine-protein kinase erbB-2 (Homo sapiens, UniProt P04626). In words: Inhibition of N-terminal GST-tagged human HER2 (Lys676 to Val1255 residues) expressed in baculovirus expression system using biotinylated FLT3 at Tyr589 as substrate preincubated for 5 mins followed by substrate addition measured after 30 mins by DELFIA method.

Amino acid sequences for entries named in this document (tags omitted).
UniProt P04626, whole entry: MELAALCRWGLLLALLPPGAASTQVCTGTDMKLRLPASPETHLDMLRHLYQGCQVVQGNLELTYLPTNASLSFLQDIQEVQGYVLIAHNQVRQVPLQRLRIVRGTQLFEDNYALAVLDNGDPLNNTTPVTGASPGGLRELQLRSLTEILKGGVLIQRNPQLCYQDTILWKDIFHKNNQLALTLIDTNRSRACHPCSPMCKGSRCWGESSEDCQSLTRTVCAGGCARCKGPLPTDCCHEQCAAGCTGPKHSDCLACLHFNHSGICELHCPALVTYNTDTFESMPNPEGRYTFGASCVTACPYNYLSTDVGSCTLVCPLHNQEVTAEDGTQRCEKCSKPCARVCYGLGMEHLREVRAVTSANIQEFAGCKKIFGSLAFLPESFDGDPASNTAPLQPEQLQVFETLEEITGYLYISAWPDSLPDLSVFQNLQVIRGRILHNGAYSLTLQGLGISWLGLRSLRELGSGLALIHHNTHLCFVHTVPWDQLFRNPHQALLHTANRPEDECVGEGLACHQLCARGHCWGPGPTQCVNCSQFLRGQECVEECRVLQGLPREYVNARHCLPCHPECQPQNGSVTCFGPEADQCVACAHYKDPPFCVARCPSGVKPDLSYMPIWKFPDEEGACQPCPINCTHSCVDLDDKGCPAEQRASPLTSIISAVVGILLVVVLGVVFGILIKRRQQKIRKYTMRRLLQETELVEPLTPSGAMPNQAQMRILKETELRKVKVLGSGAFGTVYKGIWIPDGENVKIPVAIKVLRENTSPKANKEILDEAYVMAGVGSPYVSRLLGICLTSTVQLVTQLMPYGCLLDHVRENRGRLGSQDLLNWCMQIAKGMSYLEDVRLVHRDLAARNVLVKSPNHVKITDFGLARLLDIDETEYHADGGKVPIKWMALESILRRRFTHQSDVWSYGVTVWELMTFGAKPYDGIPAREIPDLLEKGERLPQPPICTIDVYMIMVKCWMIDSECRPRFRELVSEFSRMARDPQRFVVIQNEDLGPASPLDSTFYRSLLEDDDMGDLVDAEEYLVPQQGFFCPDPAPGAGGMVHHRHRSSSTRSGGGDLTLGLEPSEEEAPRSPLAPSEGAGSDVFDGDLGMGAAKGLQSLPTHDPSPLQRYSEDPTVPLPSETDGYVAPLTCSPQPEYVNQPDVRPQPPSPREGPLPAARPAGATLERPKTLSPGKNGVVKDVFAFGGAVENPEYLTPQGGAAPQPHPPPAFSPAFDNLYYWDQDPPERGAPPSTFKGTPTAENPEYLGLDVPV

As a reminder, the IC50 is the point on the concentration scale where inhibition reaches its midpoint. A high value points to weaker potency.

`C[C@@H](Nc1ncnc2[nH]c(-c3ccc(CNCCCCCCCC(=O)NO)cc3)cc12)c1ccccc1` registered a half-maximal inhibitory concentration (IC50) of 100 to 1000 nM.
